Biological target: T1, Rhodopsin kinase GRK1 (Homo sapiens, UniProt Q15835)
T1 sequence (Q15835 whole entry): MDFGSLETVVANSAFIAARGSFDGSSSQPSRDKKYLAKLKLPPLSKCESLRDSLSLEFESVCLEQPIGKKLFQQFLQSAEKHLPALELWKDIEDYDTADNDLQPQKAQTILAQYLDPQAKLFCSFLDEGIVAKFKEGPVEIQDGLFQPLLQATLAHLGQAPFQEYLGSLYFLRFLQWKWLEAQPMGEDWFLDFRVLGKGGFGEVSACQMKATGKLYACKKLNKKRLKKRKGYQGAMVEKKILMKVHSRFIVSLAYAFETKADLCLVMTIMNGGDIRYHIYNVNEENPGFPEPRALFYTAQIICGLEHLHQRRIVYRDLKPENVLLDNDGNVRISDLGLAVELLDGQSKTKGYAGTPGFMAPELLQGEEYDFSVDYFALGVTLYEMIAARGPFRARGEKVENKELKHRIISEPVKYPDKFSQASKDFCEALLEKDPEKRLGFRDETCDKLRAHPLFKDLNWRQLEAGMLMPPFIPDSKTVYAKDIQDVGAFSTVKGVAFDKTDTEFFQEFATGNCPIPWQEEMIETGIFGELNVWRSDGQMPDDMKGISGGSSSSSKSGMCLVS
Assay: Inhibition of GRK1 (unknown origin) using tubulin as substrate by SDS-PAGE method

Structure (SMILES): CC1=C(C(=O)Nc2ccc3[nH]ncc3c2)C(c2ccc(F)c(C(=O)NCc3nccc4ccccc34)c2)NC(=O)N1 (stereo unspecified)
- IC50: 100 nM

From ChEMBL document CHEMBL3808388 (J Med Chem, 2016)
